These results are taken from paper PMC6751662, “Pharmacological and functional similarities of the human neuropeptide Y system in C. elegans challenges phylogenetic views on the FLP/NPR system” (Cell Communication and Signaling : CCS, 2019).

Amino acid sequences for entries named in this document (tags omitted). A change or cut given only in a name is not applied to a line headed by its entry.
UniProt P49146, whole entry: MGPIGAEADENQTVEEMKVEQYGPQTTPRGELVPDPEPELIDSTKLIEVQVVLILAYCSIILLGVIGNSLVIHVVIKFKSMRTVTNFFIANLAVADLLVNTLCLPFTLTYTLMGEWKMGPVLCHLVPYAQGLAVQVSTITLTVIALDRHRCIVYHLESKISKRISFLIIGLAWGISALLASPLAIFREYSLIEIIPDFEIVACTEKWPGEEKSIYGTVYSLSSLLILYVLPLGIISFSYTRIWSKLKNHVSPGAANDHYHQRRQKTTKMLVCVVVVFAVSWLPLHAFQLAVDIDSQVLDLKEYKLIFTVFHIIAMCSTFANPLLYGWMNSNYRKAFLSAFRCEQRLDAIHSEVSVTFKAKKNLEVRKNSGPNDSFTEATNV
UniProt Q9GZQ6: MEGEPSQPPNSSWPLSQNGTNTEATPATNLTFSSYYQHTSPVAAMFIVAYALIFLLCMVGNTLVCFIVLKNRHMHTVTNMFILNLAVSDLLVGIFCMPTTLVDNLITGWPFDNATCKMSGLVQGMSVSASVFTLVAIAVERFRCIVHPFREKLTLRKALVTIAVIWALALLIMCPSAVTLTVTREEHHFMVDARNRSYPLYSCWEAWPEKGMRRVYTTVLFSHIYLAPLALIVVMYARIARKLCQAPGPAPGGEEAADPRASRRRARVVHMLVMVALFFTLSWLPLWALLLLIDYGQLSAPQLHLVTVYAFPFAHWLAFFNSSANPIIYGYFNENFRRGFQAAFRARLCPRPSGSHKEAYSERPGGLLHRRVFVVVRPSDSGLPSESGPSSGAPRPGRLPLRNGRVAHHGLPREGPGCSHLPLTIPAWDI
UniProt P25929, whole entry: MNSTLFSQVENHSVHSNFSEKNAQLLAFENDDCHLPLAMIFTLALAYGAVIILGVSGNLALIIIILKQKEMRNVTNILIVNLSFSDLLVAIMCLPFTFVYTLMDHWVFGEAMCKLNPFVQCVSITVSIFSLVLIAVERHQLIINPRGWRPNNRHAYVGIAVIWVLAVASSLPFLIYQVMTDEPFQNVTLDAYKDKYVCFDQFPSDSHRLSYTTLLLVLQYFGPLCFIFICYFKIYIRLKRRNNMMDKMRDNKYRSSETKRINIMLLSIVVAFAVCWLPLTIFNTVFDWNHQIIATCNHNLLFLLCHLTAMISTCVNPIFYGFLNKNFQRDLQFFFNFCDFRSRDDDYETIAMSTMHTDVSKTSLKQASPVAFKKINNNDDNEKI

Assay [1] addresses T1, NPR-4b (Caenorhabditis elegans, UniProt A0A078BTK0).
T1 sequence (A0A078BTK0 1-376): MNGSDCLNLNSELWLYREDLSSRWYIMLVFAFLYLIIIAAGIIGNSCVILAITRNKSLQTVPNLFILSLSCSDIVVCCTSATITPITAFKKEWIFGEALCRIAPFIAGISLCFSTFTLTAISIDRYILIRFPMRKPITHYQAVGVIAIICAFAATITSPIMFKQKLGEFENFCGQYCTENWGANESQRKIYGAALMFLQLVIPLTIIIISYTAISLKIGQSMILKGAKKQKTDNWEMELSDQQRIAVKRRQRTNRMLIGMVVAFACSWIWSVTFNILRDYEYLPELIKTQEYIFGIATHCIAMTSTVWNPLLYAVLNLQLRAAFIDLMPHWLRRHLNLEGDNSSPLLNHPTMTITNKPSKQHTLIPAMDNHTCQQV
The experiment in a line: cAMP reporter gene assay, Gi/o (inhibition of forskolin-induced cAMP), NPR-4b. The assay is classed as cell-based, C. elegans. Particulars: 1 µM forskolin set to 1.00, transiently transfected HEK293 cells, mean of at least three independent experiments.

The target in assay [2] is T2, NPR-5b (Caenorhabditis elegans, UniProt Q6F3C9).
T2 sequence (Q6F3C9 1-433): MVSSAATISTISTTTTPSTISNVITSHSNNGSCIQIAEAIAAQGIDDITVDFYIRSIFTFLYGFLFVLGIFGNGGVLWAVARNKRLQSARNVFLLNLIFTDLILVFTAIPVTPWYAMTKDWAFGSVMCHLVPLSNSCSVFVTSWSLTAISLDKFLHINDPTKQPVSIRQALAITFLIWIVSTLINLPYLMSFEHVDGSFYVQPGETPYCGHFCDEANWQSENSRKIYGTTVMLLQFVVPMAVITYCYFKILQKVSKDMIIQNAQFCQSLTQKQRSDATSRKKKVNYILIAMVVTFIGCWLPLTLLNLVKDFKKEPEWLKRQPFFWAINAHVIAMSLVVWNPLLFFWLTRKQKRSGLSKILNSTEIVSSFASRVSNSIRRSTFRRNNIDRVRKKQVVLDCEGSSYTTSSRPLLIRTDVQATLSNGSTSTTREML
Put plainly: cAMP reporter gene assay, Gi/o (with forskolin), NPR-5b. The assay is classed as cell-based, C. elegans. As to conditions: 1 µM forskolin set to 1.00, values > 1 = cAMP stimulation, transiently transfected HEK293 cells, mean of at least three independent experiments. For orientation: In a reporter assay the amount or activity of a reporter protein is the signal.

Assay [3] deals with T3, QRFPR (Homo sapiens, UniProt Q96P65).
T3 construct: expressed in transfected cells; host or cells: HEK293, transient
T3 sequence (Q96P65 1-431): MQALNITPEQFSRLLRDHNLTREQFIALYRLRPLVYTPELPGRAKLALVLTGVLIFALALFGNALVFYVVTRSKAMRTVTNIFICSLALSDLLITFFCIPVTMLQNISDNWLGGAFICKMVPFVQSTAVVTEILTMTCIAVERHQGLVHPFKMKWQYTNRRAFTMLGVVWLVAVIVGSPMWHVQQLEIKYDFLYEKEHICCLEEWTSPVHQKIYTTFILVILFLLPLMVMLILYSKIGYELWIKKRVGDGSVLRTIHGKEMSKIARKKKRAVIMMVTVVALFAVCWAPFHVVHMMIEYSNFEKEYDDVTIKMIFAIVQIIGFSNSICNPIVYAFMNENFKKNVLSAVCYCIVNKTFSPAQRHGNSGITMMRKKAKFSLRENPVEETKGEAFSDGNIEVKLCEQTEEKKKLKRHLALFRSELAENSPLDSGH
The experiment in a line: IP accumulation assay, endogenous Gαq coupling, QRFPR. The assay is classed as cell-based. As to conditions: transiently transfected HEK293 cells, mean of at least three independent experiments.

For assay [4], the target named is T4, Y2R (Homo sapiens, UniProt P49146).
T4 construct: expressed in transfected cells; host or cells: HEK293, transient
The experiment in a line: IP accumulation assay, chimeric GαΔ6qi4myr, Y2R. The class given is cell-based. As to conditions: chimeric GαΔ6qi4myr co-transfected, transiently transfected HEK293 cells, mean of at least three independent experiments.

The target of assay [5] is T5, NPFF1R (Homo sapiens, UniProt Q9GZQ6).
T5 construct: expressed in transfected cells; host or cells: HEK293, transient
The experiment in a line: IP accumulation assay, chimeric GαΔ6qi4myr, NPFF1R. As to conditions: chimeric GαΔ6qi4myr co-transfected, transiently transfected HEK293 cells, mean of at least three independent experiments. The class given is cell-based.

In assay [6] the target is T6, Y1R (Homo sapiens, UniProt P25929).
T6 construct: expressed in transfected cells; host or cells: HEK293, transient
The experiment in a line: IP accumulation assay, chimeric GαΔ6qi4myr, Y1R. The assay is classed as cell-based. Particulars: chimeric GαΔ6qi4myr co-transfected, transiently transfected HEK293 cells, mean of at least three independent experiments.

Assay [7] deals with T7, NPR-1 (Caenorhabditis elegans, UniProt Q18534).
T7 sequence (Q18534 1-457): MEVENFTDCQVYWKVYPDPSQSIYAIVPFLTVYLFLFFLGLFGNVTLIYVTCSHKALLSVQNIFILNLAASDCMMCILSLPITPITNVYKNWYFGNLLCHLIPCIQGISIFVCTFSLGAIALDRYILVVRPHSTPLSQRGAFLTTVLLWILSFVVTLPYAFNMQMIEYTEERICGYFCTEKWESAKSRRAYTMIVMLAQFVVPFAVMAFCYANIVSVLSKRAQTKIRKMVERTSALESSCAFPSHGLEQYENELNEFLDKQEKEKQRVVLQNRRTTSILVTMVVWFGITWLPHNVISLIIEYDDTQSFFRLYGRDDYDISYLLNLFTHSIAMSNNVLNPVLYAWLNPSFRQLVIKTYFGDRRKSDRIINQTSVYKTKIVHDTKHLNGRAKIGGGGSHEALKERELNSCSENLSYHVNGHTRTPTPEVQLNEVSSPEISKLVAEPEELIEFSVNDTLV
The experiment in a line: cAMP reporter gene assay, Gi/o (inhibition of forskolin-induced cAMP), NPR-1. The assay is classed as cell-based, C. elegans. Also on record: host or cells: HEK293. As to conditions: inhibition of cAMP production induced by 1 µM forskolin (set to 1.00), lower = higher Gi/o activity, transiently transfected HEK293 cells, mean of at least three independent experiments.

As to “FLFQPQRF-NH2 [NPFF, human neuropeptide FF, reference compound]”, the results for the “cAMP, x-fold of forskolin (mean), NPR-4b” value in assay [1] (0.1 µM peptide) and in assay [1] (10 µM peptide) were 1.00 x-fold of forskolin and 0.44 x-fold of forskolin, respectively. Besides, the “cAMP, x-fold of forskolin (mean), NPR-5b” value in assay [2] (0.1 µM peptide) was 1.04 x-fold of forskolin; in assay [2] (10 µM peptide) it was 1.65 x-fold of forskolin. The “IP accumulation, x-fold of basal (mean), QRFPR#” value in assay [3] (0.1 µM peptide) was 0.58 x-fold of basal; in assay [3] (10 µM peptide), 0.67 x-fold of basal. The “IP accumulation, x-fold of basal (mean), Y2R” value in assay [4] (0.1 µM peptide) was 0.76 x-fold of basal; in assay [4] (10 µM peptide), 0.98 x-fold of basal. Also, the results for the “IP accumulation, x-fold of basal (mean), NPFF1R” value in assay [5] (0.1 µM peptide) and in assay [5] (10 µM peptide) were 1.76 x-fold of basal and 2.44 x-fold of basal, respectively. The “IP accumulation, x-fold of basal (mean), Y1R” value in assay [6] (0.1 µM peptide) is listed as 0.90 x-fold of basal; in assay [6] (10 µM peptide), 0.99 x-fold of basal. Moreover, the “cAMP, x-fold of forskolin (mean), NPR-1” value in assay [7] (0.1 µM peptide) was 1.27 x-fold of forskolin; in assay [7] (10 µM peptide), 0.80 x-fold of forskolin.
